Values of other authors as cited in US20080070794A1, “Chemical sensors” (The Trustees of Princeton University, priority 2005, published 2008).

The chains behind the UniProt entries cited, without tags or fusion partners.
UniProt P21728, whole entry: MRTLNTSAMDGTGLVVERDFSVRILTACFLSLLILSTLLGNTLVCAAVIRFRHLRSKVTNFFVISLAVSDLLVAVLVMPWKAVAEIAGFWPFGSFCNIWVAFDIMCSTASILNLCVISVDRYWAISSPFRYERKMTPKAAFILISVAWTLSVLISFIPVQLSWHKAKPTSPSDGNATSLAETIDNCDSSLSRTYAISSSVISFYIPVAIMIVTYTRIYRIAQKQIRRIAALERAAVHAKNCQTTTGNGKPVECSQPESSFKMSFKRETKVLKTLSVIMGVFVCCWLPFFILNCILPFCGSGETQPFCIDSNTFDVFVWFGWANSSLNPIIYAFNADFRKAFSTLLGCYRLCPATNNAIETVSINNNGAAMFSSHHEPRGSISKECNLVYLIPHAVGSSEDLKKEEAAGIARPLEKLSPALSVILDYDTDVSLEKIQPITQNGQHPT
UniProt P08908, whole entry, species assumed: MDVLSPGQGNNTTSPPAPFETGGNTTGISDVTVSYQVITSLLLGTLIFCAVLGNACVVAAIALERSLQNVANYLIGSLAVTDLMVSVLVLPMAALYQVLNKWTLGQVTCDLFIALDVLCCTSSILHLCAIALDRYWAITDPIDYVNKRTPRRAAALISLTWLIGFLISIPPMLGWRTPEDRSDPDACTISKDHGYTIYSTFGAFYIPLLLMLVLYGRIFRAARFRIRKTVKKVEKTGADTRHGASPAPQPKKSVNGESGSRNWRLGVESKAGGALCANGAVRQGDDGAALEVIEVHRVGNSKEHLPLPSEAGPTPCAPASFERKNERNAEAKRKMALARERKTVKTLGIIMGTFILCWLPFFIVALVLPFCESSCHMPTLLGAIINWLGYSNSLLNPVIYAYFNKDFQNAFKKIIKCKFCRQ
UniProt P28222, whole entry, species assumed: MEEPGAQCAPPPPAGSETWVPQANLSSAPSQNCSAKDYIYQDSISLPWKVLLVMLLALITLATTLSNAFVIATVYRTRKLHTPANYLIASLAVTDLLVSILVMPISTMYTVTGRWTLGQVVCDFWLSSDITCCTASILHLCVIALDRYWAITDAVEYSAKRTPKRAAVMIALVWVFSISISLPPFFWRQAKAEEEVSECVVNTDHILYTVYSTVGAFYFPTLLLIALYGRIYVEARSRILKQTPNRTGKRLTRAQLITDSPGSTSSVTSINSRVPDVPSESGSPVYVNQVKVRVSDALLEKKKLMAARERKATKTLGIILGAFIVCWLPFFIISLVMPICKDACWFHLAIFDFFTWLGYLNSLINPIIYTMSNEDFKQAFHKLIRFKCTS

Legend:
Muscarinic = details: cited from earlier work
D1 = D1 (Homo sapiens, UniProt P21728); details: cited from earlier work
5HT-1a = 5HT-1a (Homo sapiens, UniProt P08908); details: read-out: Kd 5HT-1a; cited from earlier work
5HT-1b = 5HT-1b (Homo sapiens, UniProt P28222); details: read-out: Kd 5HT-1b; cited from earlier work

Q: With `Clc1cccc(Cl)c1N=C1NCCN1` [clonidine] as the compound, how does the Kd (Muscarinic) read?
A: 100 µM

Q: With `CNC[C@H](O)c1ccc(O)c(O)c1` [epinephrine] as the compound, how does the Kd (D1) read?
A: 1.2 µM

Q: What about the Kd (5HT-1a) of the same compound?
A: 25 µM

Q: And the Kd (5HT-1b)?
A: 100 µM
